In the test the test system is AKT. As to the kind of experiment: Western blot of AKT protein levels and downstream signaling in BT474 cells. Type of test: cell-based, human. As for the experimental part:
PC-3, U87MG, HCC1143, MDA-MB-231, MDA-MB-468, BT474 and MCF-7 cell lines were purchased from ATCC. Cell lines were regularly tested in the lab for mycoplasma. All cells were cultured at 37° C. and 5% CO2. PC-3, U87MG, MDA-MB-231, MCF-7 and BT474 cells were cultured in 1×DMEM (Corning, 10-013-CV) with 10% fetal bovine serum (Atlanta Biologicals S11150) and 1× Penicillin/Streptomycin. HCC1143 cells were cultured in RPMI (Corning, 10-040-CV) medium with 10% fetal bovine serum (Atlanta Biologicals S11150) and 1× Penicillin/Streptomycin. Cells were split using 0.05% or 0.25% trypsin (Corning 25-051-Cl or 25-053-Cl, respectively) before they reached full confluence and media was changed every 3-4 days. Cells were treated with compounds individually at different concentrations for 24 hrs. Cells were treated with DMSO, VHL, or PML alone as controls.
Cells were lysed in 2× sample buffer (125 mM Tris-HCl at pH 6.8, 10% βME, 2% SDS, 20% glycerol, 0.05% Bromophenol Blue, 8 M urea). Protein lysates were loaded into 4-12% Bis-Tris gels and resolved by electrophoresis. Samples were then blotted on PVDF membrane (Millipore IPVH00010) using the wet transfer technique (Invitrogen). Membranes were blocked in 5% milk-TBST for 1 hour, washed in TBST for 10 min, and incubated in primary antibody in 5% milk-TBST or 5% BSA-TBST at 4° C. for 16 h. Membranes were rinsed (3×6 min) in TBST and incubated in horseradish peroxidase-conjugated secondary antibodies in 5% milk-TBST for 1 hour and rinsed again in TBST (3×6 min). Membranes were visualized using the chemiluminescence system (Thermo 34080, 37075) on autoradiography film (Denville E3018). Primary Antibodies: R-actin (Sigma A5316), p-AKT (Ser473 CST-9721), total AKT (CST-9272), p-S6 (Ser240/244, CST-5364), p-PRAS40 (Thr246, CST-2997). Secondary Antibodies: Mouse (Thermo 31432), Rabbit (Thermo 31460).

AKT protein levels and pAKT levels data for 1 compound are collected here from patent publication US11472799B2, “Serine threonine kinase (AKT) degradation / disruption compounds and methods of use” (Icahn School of Medicine at Mount Sinai, priority 2018, dated 2022).

In the case of `CC(C)NC[C@@H](C(=O)N1CCN(c2ncnc3c2[C@H](C)C[C@H]3O)CC1)c1ccc(Cl)cc1` [GDC0068, reference compound], the AKT protein levels entry is “no effect” (1 μM, 5 μM, or 10 μM for 24 h) and “no effect” (0.01-1 μM for 24 h (FIG. 4A)). Further, the pAKT levels result runs as follows: (1 μM, 5 μM, or 10 μM for 24 h) “increased”; (0.01-1 μM for 24 h (FIG. 4A)) “increased”.
